Data from US20220347309A1, “PYRROLOBENZODIAZEPINE RESISTANCE” (ADC THERAPEUTICS SA, priority 2018, published 2022).

How the values were obtained:
[1] = test system: NCI-N87 PBDr cells (SG3199 acquired resistant); experiment: MTS in vitro cytotoxicity, 144 h continuous exposure; type: cell-based, human; conditions: mean
Text: (§1) The growth inhibition curves for the wildtype and ADCT-502 acquired resistant cells are shown in FIG. 3, and for SG3199 resistant cells in FIG. 4.

[2] = test system: NCI-N87 ADCr cells (ADCT-502 acquired resistant); experiment: as above; type: cell-based, human; conditions: mean
Text: as §1

Trastuzumab-SG3560: C2-linked PBD-ADC
IC50 ng/mL [1]: 54 (54) ng/mL | IC50 ng/mL [2]: 95 (95) ng/mL
